Test results as given in patent publication US20110212973A1, “CARBAMATE COMPOUND OR SALT THEREOF” (published 2011).

Sequences of proteins named here, by UniProt entry; tags and fusion partners are left off.
UniProt O00519, whole entry, looked up: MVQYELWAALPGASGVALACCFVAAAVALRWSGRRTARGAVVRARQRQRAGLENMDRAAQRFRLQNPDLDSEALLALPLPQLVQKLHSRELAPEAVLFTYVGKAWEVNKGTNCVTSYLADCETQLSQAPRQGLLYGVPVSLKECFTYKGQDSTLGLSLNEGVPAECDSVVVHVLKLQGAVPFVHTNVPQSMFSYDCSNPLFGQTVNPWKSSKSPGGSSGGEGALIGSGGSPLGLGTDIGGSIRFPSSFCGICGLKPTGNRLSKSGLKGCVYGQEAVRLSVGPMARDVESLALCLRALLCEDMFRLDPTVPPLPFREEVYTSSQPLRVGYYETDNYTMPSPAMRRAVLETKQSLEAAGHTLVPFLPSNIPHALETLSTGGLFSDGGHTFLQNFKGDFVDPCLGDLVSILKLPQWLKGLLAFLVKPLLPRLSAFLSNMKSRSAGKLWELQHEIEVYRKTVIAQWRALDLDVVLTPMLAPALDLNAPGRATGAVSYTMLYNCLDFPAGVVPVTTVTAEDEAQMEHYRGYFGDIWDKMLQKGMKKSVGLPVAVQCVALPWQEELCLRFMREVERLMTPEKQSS
UniProt P97612, whole entry, looked up: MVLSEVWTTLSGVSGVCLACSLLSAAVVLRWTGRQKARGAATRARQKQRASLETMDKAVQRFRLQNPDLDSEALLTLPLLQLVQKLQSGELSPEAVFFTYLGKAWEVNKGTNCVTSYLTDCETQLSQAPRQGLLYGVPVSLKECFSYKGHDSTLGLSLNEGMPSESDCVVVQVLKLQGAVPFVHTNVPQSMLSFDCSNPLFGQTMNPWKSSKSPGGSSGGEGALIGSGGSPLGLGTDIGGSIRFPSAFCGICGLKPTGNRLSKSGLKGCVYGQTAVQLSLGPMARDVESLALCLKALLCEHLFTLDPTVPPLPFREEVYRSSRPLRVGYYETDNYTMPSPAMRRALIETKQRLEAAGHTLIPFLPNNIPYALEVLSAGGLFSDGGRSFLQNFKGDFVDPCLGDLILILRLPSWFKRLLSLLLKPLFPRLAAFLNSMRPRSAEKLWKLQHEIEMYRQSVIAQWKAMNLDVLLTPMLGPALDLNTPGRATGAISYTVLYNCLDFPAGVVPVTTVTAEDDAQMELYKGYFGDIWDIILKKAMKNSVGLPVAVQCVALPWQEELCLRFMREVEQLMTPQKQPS

How the values were obtained:
[1] = biological target: FAAH (Homo sapiens, UniProt O00519); test: Screening for an FAAH activity-inhibiting substance using a human bladder epithelial cancer-derived cell (Test Example 1); settings: human bladder epithelial cancer-derived cell line 5637; radiolabeled anandamide substrate, 37° C. for 30 minutes; URB597 10 μM = 0%, DMSO = 100%
[2] = test system: Water-loaded rats; test: Action on water-loaded rats, anti-diuretic action test (Test Example 4); settings: Wistar male rats, oral dose of 10 mg/kg or less, urine weight measured for 6 hours
[3] = biological target: FAAH (Rattus norvegicus, UniProt P97612); test: FAAH activity in rat tissue homogenate after oral administration of test substance (Test Example 2); settings: Wistar male rats, 1 mg/kg orally, 30 minutes after dosing; for Inhibitory rate (%) Brain: brain homogenate; for Inhibitory rate (%) Monocytes: peripheral blood monocyte homogenate

SMILES | IC50 [1] [nM] | urine amount as compared with the 0.5% methylcellulose group [2] | Inhibitory rate (%) Brain [3] [%] | Inhibitory rate (%) Monocytes [3] [%]
O=C(Oc1cccnc1)N1CCN(C(=O)c2nc3cc(Cl)c(Cl)cc3[nH]2)CC1 | 0.13 | – | – | –
Cc1cccc2[nH]c(C(=O)N3CCN(C(=O)Oc4cccnc4)CC3)nc12 | 0.82 | decreased | 94 | 88
O=C(Oc1cccnc1)N1CCN(C(=O)c2nc3ccccc3s2)CC1 | 0.13 | – | – | –
O=C(Oc1cccnc1)N1CCN(C(=O)c2nc3c(F)c(F)ccc3[nH]2)CC1 | 0.98 | decreased | 92 | 80
Cc1c(C(=O)N2CCN(C(=O)Oc3cccnc3)CC2)oc2ccccc12 | 0.28 | decreased | 87 | 78
